Molecular target: Muscarinic acetylcholine receptor M1 (Rattus norvegicus, UniProt P08482)
Test: Binding affinity at Muscarinic acetylcholine receptor M1 in Rat brain homogenate by [3H]pirenzepine displacement.
Type: tissue-based

Protein sequences, listed by entry. Tags and fused reporters are not part of them. Lines headed by an entry give the natural chain unless they say otherwise; changes in a name come on top.
UniProt P08482: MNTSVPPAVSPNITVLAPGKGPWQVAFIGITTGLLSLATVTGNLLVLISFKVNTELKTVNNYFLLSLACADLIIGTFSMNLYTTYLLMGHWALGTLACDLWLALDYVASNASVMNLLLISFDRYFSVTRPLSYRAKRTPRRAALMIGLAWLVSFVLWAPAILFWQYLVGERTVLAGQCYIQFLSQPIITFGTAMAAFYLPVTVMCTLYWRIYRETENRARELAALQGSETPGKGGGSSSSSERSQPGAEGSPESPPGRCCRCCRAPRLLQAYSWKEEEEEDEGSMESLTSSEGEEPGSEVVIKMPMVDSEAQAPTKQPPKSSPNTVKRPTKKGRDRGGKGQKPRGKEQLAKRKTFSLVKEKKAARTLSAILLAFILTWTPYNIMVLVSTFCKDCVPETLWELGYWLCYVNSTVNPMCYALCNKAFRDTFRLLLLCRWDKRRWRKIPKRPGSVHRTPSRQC

CN1C2CCC1CC(OC(c1ccc(F)cc1)c1ccc(F)cc1)C2 (stereo unspecified) [DIFLUOROBENZTROPINE]
Ki: 11.6 nM
